# Source: patent publication US20260382728A1, “MODIFIED PROTEINS AND PROTEIN BINDERS AND DEGRADERS” (published 2026)
# Protein sequences, listed by entry. Tags and fused reporters are not part of them.
# UniProt P11802, whole entry: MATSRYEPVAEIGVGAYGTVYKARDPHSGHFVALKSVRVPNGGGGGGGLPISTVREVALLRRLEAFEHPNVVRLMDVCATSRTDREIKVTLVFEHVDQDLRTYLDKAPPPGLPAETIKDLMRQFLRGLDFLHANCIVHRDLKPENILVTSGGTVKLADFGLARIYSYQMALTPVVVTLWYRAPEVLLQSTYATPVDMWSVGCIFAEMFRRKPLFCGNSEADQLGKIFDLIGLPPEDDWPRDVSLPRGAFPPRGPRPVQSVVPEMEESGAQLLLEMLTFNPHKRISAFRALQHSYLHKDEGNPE
# UniProt P03372, whole entry: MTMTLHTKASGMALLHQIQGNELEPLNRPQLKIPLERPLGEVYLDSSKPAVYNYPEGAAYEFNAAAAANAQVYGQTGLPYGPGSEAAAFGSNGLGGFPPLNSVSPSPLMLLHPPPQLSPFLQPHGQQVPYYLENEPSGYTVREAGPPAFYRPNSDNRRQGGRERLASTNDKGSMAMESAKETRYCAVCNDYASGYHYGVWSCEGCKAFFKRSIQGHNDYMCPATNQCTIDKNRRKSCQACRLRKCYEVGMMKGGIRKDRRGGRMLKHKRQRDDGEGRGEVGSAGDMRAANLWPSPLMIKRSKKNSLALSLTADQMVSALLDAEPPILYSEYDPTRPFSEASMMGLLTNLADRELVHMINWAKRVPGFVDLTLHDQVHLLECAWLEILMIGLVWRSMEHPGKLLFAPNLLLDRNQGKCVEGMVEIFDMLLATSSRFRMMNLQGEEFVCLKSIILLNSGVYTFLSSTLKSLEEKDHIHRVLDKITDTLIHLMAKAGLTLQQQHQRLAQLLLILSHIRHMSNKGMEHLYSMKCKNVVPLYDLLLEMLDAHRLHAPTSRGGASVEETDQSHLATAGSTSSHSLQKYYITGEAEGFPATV
# Experiments:
# [1] = biological target: CDK4 (Homo sapiens, UniProt P11802); test: CDK4 degradation in T47D cells (immunoblotting); conditions: 16 hours
# [2] = test system: cyclin D1; test: Cyclin D1 degradation in T47D cells (immunoblotting); conditions: 16 hours
# [3] = biological target: BRD4 (Homo sapiens, UniProt O60885); test: BRD4 degradation in MV4;11 cells (immunoblotting)
# [4] = test system: MV4;11 cells; test: Cell viability inhibition of MV4;11 cells (CellTiter-Glo); conditions: read-out: Cell viability inhibition IC50, 3 days, 3-fold serial dilution
# [5] = biological target: ERα (Homo sapiens, UniProt P03372); test: ERα degradation in T47D cells; conditions: serum starved 2 hours, 24 hours, serum-free
Structure (SMILES),% BRD4 Degradation (at 10 μM) [3],IC50 [4],further results
C[C@]1(O)CCC[C@@H]1n1c(=O)c(C(F)F)cc2cnc(NC3CCN(C(=O)CCOCCOCCOCCN4CCN(c5cc(N[C@@H]6CCCN(c7cccc(F)c7)C6)ncn5)CC4)CC3)nc21,–,–,% CDK4 Degradation (at 1 μM) [1]: D (D < 20%); % Cyclin D1 Degradation (at 1 μM) [2]: D (D < 20%)
C[C@]1(O)CCC[C@@H]1n1c(=O)c(C(F)F)cc2cnc(NC3CCN(C(=O)CCOCCOCCOCCOCCN4CCN(c5cc(N[C@@H]6CCCN(c7cccc(F)c7)C6)ncn5)CC4)CC3)nc21,–,–,% CDK4 Degradation (at 1 μM) [1]: D (D < 20%); % Cyclin D1 Degradation (at 1 μM) [2]: D (D < 20%)
Cc1sc2c(c1C)C(c1ccc(Cl)cc1)=N[C@@H](CC(=O)NCCNC(=O)CN1CCN(c3cc(N[C@@H]4CCCN(c5cccc(F)c5)C4)ncn3)CC1)c1nnc(C)n1-2,D (D < 20%),300 to 1000 nM,–
O=C(NCCOc1ccc([C@@H]2c3ccc(O)cc3CC[C@@H]2c2ccccc2)cc1)c1ccnc(N2CCC3(CCN(c4ccccc4)C3)C2)c1 (stereo partly drawn),–,–,% ERα Degradation (at 1 μM) [5]: C (20% ≤ C < 40%)
Cc1sc2c(c1C)C(c1ccc(Cl)cc1)=N[C@@H](CC(=O)NCCNC(=O)CCOCCOCCOCCN1CCN(c3cc(N[C@@H]4CCCN(c5cccc(F)c5)C4)ncn3)CC1)c1nnc(C)n1-2,D (D < 20%),100 to 300 nM,–
Cc1sc2c(c1C)C(c1ccc(Cl)cc1)=N[C@@H](CC(=O)NCCNC(=O)CCCN1CCN(c3cc(N[C@@H]4CCCN(c5cccc(F)c5)C4)ncn3)CC1)c1nnc(C)n1-2,D (D < 20%),100 to 300 nM,–
O=C(NCCOCCOCCOc1ccc([C@@H]2c3ccc(O)cc3CC[C@@H]2c2ccccc2)cc1)c1ccnc(N2CCC3(CCN(c4ccccc4)C3)C2)c1 (stereo partly drawn),–,–,% ERα Degradation (at 1 μM) [5]: D (D < 20%)
Cc1sc2c(c1C)C(c1ccc(Cl)cc1)=N[C@@H](CC(=O)NCCCCN1CCN(c3cc(N[C@@H]4CCCN(c5cccc(F)c5)C4)ncn3)CC1)c1nnc(C)n1-2,A (A: ≥ 70%),100 to 300 nM,–
C[C@]1(O)CCC[C@@H]1n1c(=O)c(C(F)F)cc2cnc(NC3CCN(C(=O)CCOCCOCCN4CCN(c5cc(N[C@@H]6CCCN(c7cccc(F)c7)C6)ncn5)CC4)CC3)nc21,–,–,% CDK4 Degradation (at 1 μM) [1]: C (20% ≤ C < 40%); % Cyclin D1 Degradation (at 1 μM) [2]: C (20% ≤ C < 40%)
Cc1sc2c(c1C)C(c1ccc(Cl)cc1)=N[C@@H](CC(=O)NCCOCCN1CCN(c3cc(N[C@@H]4CCCN(c5cccc(F)c5)C4)ncn3)CC1)c1nnc(C)n1-2,A (A: ≥ 70%),< 100 nM,–
O=C(NCCCOc1ccc([C@@H]2c3ccc(O)cc3CC[C@@H]2c2ccccc2)cc1)c1ccnc(N2CCC3(CCN(c4ccccc4)C3)C2)c1 (stereo partly drawn),–,–,% ERα Degradation (at 1 μM) [5]: C (20% ≤ C < 40%)
C[C@]1(O)CCC[C@@H]1n1c(=O)c(C(F)F)cc2cnc(NC3CCN(C(=O)CCOCCN4CCN(c5cc(N[C@@H]6CCCN(c7cccc(F)c7)C6)ncn5)CC4)CC3)nc21,–,–,% CDK4 Degradation (at 1 μM) [1]: C (20% ≤ C < 40%); % Cyclin D1 Degradation (at 1 μM) [2]: D (D < 20%)
Cc1sc2c(c1C)C(c1ccc(Cl)cc1)=N[C@@H](CC(=O)NCCOCCOCCOCCN1CCN(c3cc(N[C@@H]4CCCN(c5cccc(F)c5)C4)ncn3)CC1)c1nnc(C)n1-2,D (D < 20%),100 to 300 nM,–
Cc1sc2c(c1C)C(c1ccc(Cl)cc1)=N[C@@H](CC(=O)NCCCCCCCCN1CCN(c3cc(N[C@@H]4CCCN(c5cccc(F)c5)C4)ncn3)CC1)c1nnc(C)n1-2,D (D < 20%),100 to 300 nM,–
Cc1sc2c(c1C)C(c1ccc(Cl)cc1)=N[C@@H](CC(=O)NCCOCCOCCN1CCN(c3cc(N[C@@H]4CCCN(c5cccc(F)c5)C4)ncn3)CC1)c1nnc(C)n1-2,A (A: ≥ 70%),< 100 nM,–
Cc1sc2c(c1C)C(c1ccc(Cl)cc1)=N[C@@H](CC(=O)NCCOCCOCCOCCOCCN1CCN(c3cc(N[C@@H]4CCCN(c5cccc(F)c5)C4)ncn3)CC1)c1nnc(C)n1-2,B (40% ≤ B < 70%),100 to 300 nM,–
Cc1sc2c(c1C)C(c1ccc(Cl)cc1)=N[C@@H](CC(=O)NCCNC(=O)CCCCCN1CCN(c3cc(N[C@@H]4CCCN(c5cccc(F)c5)C4)ncn3)CC1)c1nnc(C)n1-2,C (20% ≤ C < 40%),100 to 300 nM,–
O=C(NCCCCCCOc1ccc([C@@H]2c3ccc(O)cc3CC[C@@H]2c2ccccc2)cc1)c1ccnc(N2CCC3(CCN(c4ccccc4)C3)C2)c1 (stereo partly drawn),–,–,% ERα Degradation (at 1 μM) [5]: D (D < 20%)
O=C(NCCOCCOCCOCCOCCOc1ccc([C@@H]2c3ccc(O)cc3CC[C@@H]2c2ccccc2)cc1)c1ccnc(N2CCC3(CCN(c4ccccc4)C3)C2)c1 (stereo partly drawn),–,–,% ERα Degradation (at 1 μM) [5]: A (A: ≥ 70%)
